According to PubChem BioAssay (Tox21):
Several values for one entry are separate records, joined by “and”; a condition that tells them apart may be missing. Equal entries are not always repeated. Only a part is listed here, and it is no random draw. Inconclusive results are not listed. Activity calls are given as the source filed them. Unless noted, the call rests on the fitted dose curve; in most records, active means well fitted curve in the direction sought with a large enough effect in the repeat runs; inconclusive means weak or mixed curves; inactive means no such curve, though single readings can be large; an effect the other way counts as inactive or inconclusive.

By UniProt entry, the sequences of proteins in these tests, tags left out.
UniProt P04150, whole entry: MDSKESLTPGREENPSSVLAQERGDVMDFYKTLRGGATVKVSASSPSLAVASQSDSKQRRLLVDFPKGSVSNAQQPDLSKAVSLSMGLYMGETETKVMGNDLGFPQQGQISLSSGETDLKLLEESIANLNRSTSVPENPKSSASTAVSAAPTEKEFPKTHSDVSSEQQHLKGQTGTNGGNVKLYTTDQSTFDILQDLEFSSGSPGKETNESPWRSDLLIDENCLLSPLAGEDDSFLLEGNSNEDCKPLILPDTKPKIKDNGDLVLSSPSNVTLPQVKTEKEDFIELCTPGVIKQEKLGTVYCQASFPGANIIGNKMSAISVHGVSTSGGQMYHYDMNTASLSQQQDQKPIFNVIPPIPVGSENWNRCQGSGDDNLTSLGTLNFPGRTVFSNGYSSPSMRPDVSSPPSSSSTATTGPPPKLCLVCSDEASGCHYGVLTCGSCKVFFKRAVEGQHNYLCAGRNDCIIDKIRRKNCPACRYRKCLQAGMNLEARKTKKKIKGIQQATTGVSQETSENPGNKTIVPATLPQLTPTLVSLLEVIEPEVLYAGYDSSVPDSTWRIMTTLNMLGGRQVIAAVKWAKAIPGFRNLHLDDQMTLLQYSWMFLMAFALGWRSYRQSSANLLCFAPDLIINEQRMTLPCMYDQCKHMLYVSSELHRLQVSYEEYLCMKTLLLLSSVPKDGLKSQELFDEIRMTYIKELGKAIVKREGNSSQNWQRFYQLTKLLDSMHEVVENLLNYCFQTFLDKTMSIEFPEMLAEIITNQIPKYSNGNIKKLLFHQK
UniProt P10275, whole entry: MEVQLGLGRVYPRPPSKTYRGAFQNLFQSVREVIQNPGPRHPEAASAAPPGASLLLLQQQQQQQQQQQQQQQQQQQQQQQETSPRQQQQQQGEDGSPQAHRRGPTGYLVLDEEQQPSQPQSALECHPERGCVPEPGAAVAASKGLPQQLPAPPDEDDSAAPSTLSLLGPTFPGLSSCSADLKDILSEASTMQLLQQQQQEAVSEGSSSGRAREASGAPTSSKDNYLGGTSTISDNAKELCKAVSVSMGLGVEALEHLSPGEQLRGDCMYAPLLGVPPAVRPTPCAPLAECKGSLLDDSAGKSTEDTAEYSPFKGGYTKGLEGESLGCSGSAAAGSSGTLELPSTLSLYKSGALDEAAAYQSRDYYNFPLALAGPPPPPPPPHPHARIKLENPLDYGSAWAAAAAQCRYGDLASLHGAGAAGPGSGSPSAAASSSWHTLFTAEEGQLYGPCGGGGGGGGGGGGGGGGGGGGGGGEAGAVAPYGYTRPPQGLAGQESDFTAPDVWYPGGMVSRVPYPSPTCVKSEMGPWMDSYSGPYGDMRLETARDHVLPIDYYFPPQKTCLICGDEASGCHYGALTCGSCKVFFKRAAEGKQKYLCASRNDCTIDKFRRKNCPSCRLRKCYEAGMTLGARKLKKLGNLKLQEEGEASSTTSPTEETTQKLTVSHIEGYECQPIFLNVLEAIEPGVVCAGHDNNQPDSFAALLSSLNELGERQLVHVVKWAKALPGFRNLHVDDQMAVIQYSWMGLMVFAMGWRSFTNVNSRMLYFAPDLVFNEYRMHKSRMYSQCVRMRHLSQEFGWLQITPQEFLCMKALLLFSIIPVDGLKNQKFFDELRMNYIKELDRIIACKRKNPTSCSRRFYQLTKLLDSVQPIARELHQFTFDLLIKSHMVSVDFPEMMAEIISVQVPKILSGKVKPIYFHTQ
UniProt Q14994, whole entry: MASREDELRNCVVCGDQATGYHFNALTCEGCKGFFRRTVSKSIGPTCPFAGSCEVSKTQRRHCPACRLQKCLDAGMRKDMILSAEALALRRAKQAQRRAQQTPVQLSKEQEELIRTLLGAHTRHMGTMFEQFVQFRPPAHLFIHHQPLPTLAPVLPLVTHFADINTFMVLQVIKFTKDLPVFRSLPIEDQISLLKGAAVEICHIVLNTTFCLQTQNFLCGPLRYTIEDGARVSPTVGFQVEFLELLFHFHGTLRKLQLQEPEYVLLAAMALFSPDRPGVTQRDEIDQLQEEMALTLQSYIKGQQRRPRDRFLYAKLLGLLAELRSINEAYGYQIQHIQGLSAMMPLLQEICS
UniProt Q92731, whole entry: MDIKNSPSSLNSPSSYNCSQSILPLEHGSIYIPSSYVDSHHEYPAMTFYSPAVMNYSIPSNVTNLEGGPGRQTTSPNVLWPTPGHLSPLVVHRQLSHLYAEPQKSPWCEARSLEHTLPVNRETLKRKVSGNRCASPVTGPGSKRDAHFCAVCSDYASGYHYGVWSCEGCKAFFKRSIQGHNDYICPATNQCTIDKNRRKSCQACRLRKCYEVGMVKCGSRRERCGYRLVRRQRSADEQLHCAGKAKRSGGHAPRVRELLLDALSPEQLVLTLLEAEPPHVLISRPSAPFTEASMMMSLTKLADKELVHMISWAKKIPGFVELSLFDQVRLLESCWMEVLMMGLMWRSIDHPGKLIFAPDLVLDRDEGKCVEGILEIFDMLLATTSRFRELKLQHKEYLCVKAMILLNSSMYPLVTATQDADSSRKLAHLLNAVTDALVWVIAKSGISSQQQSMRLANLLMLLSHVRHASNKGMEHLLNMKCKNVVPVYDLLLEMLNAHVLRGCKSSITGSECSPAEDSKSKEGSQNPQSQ
UniProt P16473, whole entry: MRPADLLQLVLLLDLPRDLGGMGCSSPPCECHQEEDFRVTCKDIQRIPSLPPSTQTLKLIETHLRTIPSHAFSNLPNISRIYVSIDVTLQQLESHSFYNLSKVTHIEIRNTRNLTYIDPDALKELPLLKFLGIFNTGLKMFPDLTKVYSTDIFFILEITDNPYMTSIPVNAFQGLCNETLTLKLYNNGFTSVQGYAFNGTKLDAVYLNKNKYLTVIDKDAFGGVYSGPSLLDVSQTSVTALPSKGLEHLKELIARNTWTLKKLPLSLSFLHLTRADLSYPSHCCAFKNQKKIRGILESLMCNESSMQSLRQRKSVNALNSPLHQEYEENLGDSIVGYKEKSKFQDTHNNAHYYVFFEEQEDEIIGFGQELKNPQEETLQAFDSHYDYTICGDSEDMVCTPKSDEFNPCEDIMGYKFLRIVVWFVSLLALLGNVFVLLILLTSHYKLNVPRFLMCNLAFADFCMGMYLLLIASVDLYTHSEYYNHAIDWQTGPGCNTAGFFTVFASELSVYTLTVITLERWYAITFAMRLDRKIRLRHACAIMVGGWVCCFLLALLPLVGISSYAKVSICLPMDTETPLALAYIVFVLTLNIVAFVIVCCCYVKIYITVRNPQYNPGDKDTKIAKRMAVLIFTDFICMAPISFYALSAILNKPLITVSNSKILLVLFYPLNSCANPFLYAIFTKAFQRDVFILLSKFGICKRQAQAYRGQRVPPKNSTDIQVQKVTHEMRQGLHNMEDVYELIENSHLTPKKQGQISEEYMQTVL

Columns and labels:
[1] = target: Glucocorticoid receptor (Homo sapiens) (UniProt P04150); experiment: qHTS assay to identify small molecule antagonists of the glucocorticoid receptor (GR) signaling pathway (AID 720692; active means well fitted inhibition curve with a large enough effect in the signal ratio in the repeat runs, not every such curve was filed as active; the % refers to the signal ratio; further: on the % scale 0 is the no-effect control and ±100 the full control effect); details: GR-bla HeLa, beta-lactamase FRET ratio, dexamethasone-stimulated, 18 h; at 58.5 µM (top of the series)
[2] = qHTS assay for small molecules that induce genotoxicity in human embryonic kidney cells expressing luciferase-tagged ATAD5 - cell viability (AID 651634; calls by dose curve; further: potency means the concentration at half of the fitted maximal effect; nearly all actives have a fitted effect of over 25% in size); details: HEK293T ATAD5-luc cells viability, CellTiter-Fluor, 15.5 h
Outline: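 Cytotoxicity counter-readout: after 15.5 hr compound treatment at 37C, live-cell protease activity in ATAD5-luciferase HEK293T cells measured by CellTiter-Fluor fluorescence, 30 min development at 37C.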

[3] = target: Androgen receptor (Homo sapiens) (UniProt P10275); experiment: qHTS assay to identify small molecule antagonists of the androgen receptor (AR) signaling pathway using the MDA cell line (AID 743042; further: potency means the concentration at half of the fitted maximal effect; nearly all actives have a fitted effect of over 55% in size); details: MDA-kb2 AR-luc, MMTV luciferase, R1881 antagonist, 16 h
[4] = qHTS assay to identify aromatase inhibitors - cell viability counter screen (AID 743084);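 further: cells stimulated with testosterone during compound exposure; potency means the concentration at half of the fitted maximal effect; nearly all actives have a fitted effect of over 55% in size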
[5] = qHTS assay for small molecule agonists of the antioxidant response element (ARE) signaling pathway - cell viability counter screen (AID 743203; calls by dose curve; further: potency means the concentration at half of the fitted maximal effect; nearly all actives have a fitted effect of over 55% in size); details: ARE-bla HepG2 viability, CellTiter-Glo luminescence, 16 h
Outline: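 Viability counter screen: CellTiter-Glo luminescence, read after 30 min at room temperature, in ARE-bla HepG2 wells. Compound exposure lasted 16 h at 37C/5% CO2, following a 5 h pre-incubation of the cells after plating.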

[6] = qHTS assay to identify small molecule agonists of the endoplasmic reticulum stress response signaling pathway - cell viability counter screen (AID 1159517; calls by dose curve; further: potency means the concentration at half of the fitted maximal effect; nearly all actives have a fitted effect of over 50% in size)
Outline: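 In parallel with the ESRE reporter read, cytotoxicity was scored by CellTiter-Glo luminescence (30 min, room temperature) on HeLa ESRE-bla cells dosed for 5 hr.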

[7] = qHTS assay to identify small molecule antagonists of the retinoic acid receptor (RAR) signaling pathway (AID 1159552; further: potency means the concentration at half of the fitted maximal effect; nearly all actives have a fitted effect of over 50% in size); details: C3RL4 RARE luciferase reporter, retinol-stimulated, 6 h
Outline: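 Overnight-plated C3RL4 reporter cells get compound, then retinol to 1 uM final; plates sit 6 hr at 37 C, 5% CO2. A luciferase reagent is added and light output recorded after 30 min at room temperature.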

[8] = qHTS assay to identify small molecule agonists of the constitutive androstane receptor (CAR) signaling pathway - cell viability counter screen (AID 1224836); further: potency means the concentration at half of the fitted maximal effect; nearly all actives have a fitted effect of over 45% in size
Outline: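 Fluorescence from CellTiter-Fluor indicates live cells after 23 h exposure. The human hepatoma line expresses hCAR and a CYP2B6-2.2kb reporter. Incubation medium contains 0.75 uM PK11195 (final).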

[9] = target: Nuclear receptor subfamily 1 group I member 3 (Homo sapiens) (UniProt Q14994); experiment: qHTS assay to identify small molecule antagonists of the constitutive androstane receptor (CAR) signaling pathway (AID 1224838); details: HepG2-CYP2B6-hCAR luciferase, CITCO-stimulated, 24 h;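 further: HepG2 cells stably expressing hCAR with CYP2B6 luciferase reporter stimulated by CITCO; potency means the concentration at half of the fitted maximal effect; nearly all actives have a fitted effect of over 40% in size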
[10] = qHTS assay to identify small molecule antagonists of the estrogen related receptor signaling pathway with the pleiotropic PPARgamma coactivator (PGC) from Tox21 10K library - cell viability counter screen (AID 1224840; active means well fitted cell-killing curve with a large enough effect in the repeat runs, not every such curve was filed as active; further: potency means the concentration at half of the fitted maximal effect; nearly all actives have a fitted effect of over 40% in size)
Outline: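 Counter-screen for cytotoxicity: after 17.5 h compound exposure at 37 C, CellTiter-Fluor reagent added to PGC/ERR cells for 30 min and fluorescence read. Cells were seeded at 2,000 per well 6 h before dosing.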

[11] = qHTS assay to identify small molecule antagonists of the estrogen related receptor signaling pathway with the pleiotropic PPARgamma coactivator (PGC) from Tox21 10K library (AID 1224841; call rule not given here; further: potency means the concentration at half of the fitted maximal effect; actives are mostly falling curves and most rising ones were filed inactive; nearly all actives have a fitted effect of over 50% in size); details: PGC/ERR reporter cell line, ONE-Glo luciferase, 18 h
[12] = qHTS RealTime-Glo MT Cell Viability Assay in HEK293 cells - 32 hour (AID 1224868); further: potency means the concentration at half of the fitted maximal effect; nearly all actives have a fitted effect of over 50% in size
Outline: (§1)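 Reads taken at 0, 8, 16, 24, 32 and 40 h from the same wells. HEK293 cells (600/well) carried RealTime-Glo reagents from seeding, with compound added after a 5 h settle at 37 C.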

[13] = qHTS RealTime-Glo MT Cell Viability Assay in HepG2 cells - 8 hour (AID 1224873); further: nearly all actives have a fitted effect of over 55% in size; further: potency means the concentration at half of the fitted maximal effect
Outline: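 HepG2 cells (600/well) mixed with RealTime-Glo MT reagent, settled 5 h at 37 C/5% CO2 before compound addition. Nonlytic NanoLuc luminescence from viable-cell prosubstrate reduction read repeatedly during 40 h treatment at 37 C.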

[14] = qHTS RealTime-Glo MT Cell Viability Assay in HEK293 cells - 40 hour (AID 1224874); details: RealTime-Glo luminescence
Outline: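 Luminescence, which tracks viable cell number through reduction of the prosubstrate to a NanoLuc substrate, was read over continuous 37 C culture. Cells (600/well) were premixed with reagent and rested 5 h before 23 nL of compound in DMSO was pinned.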

[15] = A CellTox Green Cytotoxicity Assay to monitor cytotoxicity in HepG2 cells - 24 hour (AID 1224878); details: CellTox Green fluorescence; further: potency means the concentration at half of the fitted maximal effect; nearly all actives have a fitted effect of over 45% in size
Outline: (§2)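 Real-time cytotoxicity: fluorescence of a cell-impermeant cyanine dye binding DNA of dead HepG2 cells, measured repeatedly (0–40 h) during compound exposure at 37 C. Cells seeded 600/well with reagent, dosed after 5 h.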

[16] = qHTS RealTime-Glo MT Cell Viability Assay in HEK293 cells - 24 hour (AID 1224886); details: RealTime-Glo luminescence
Outline: as §1

[17] = qHTS assay to identify small molecule antagonists of the androgen receptor (AR) signaling pathway using the MDA cell line in the presence of 0.5 nM R1881 - cell viability counter screen (AID 1259242); further: potency means the concentration at half of the fitted maximal effect; nearly all actives have a fitted effect of over 45% in size
Outline: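 Live-cell protease activity was measured by CellTiter-Fluor fluorescence after 30 min. Before that, MDA-kb2 MMTV-luciferase cells had 16 hr at 37C without CO2, exposed to test compounds and 0.5 nM R1881 final.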

[18] = qHTS assay to identify small molecule agonists of the sonic hedgehog signaling (Shh) pathway - cell viability counter screen (AID 1259366); details: NIH/3T3 Gli1-Luc viability, CellTiter-Fluor, 24 h
Outline: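 Stable Gli1-Luc NIH/3T3 clone, 2,000 cells/well. Compound exposure 24hr at 37C. Read-out: CellTiter-Fluor fluorescence.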

[19] = qHTS assay to identify small molecule antagonists of the sonic hedgehog signaling (Shh) pathway - cell viability counter screen (AID 1259367); details: NIH/3T3 Gli1-Luc viability, CellTiter-Fluor, 24 h
Outline: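 Tox21 library chemicals were tested on a Gli1-Luc NIH/3T3 clone (2,000 cells/well) stimulated by conditioned medium; viability was quantified as fluorescence from CellTiter-Fluor reagent added at 23 hr.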

[20] = target: Estrogen receptor beta (Homo sapiens) (UniProt Q92731); experiment: qHTS assay to identify small molecule antagonists of the estrogen receptor beta (ER-beta) signaling pathway (AID 1259378; active means well fitted inhibition curve with a large enough effect in the signal ratio in the repeat runs, not every such curve was filed as active; the % refers to the signal ratio; further: potency means the concentration at half of the fitted maximal effect); details: ER-beta-UAS-bla HEK293T, beta-lactamase FRET ratio, 16 h
Outline: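 ER-beta-UAS-bla HEK293T cells in 2% charcoal-stripped FBS medium treated with compound plus 1nM final 17-beta-estradiol for 16 hr at 37C. Beta-lactamase reporter read by FRET substrate fluorescence after 2 hours at room temperature.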

[21] = qHTS assay to identify small molecule agonists of the androgen receptor (AR) signaling pathway in the presence of an antagonist - cell viability counter screen (AID 1259379); details: MDA-kb2 viability, CellTiter-Fluor, 16 h; further: potency means the concentration at half of the fitted maximal effect; nearly all actives have a fitted effect of over 25% in size
Outline: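 Cytotoxicity counter-screen run in the same wells as the nilutamide-challenged (3.0 µM final) AR agonist assay in MDA-kb2 cells. Compounds tested at 15 concentrations for 16 h, 37 °C without CO2; CellTiter-Fluor fluorescence read.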

[22] = qHTS assay to identify small molecule agonists of the estrogen receptor beta (ER-beta) signaling pathway - cell viability counter screen (AID 1259380); details: ER-beta-bla HEK293T viability, CellTiter-Glo luminescence, 16 h; further: potency means the concentration at half of the fitted maximal effect; nearly all actives have a fitted effect of over 30% in size
Outline: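 Cell viability counter screen: CellTiter-Glo luminescence (30 min, room temperature) measured in the same wells as the beta-lactamase readout, after 16 hr compound exposure at 37C of ER-beta-bla HEK293T cells in 2% charcoal-stripped FBS medium.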

[23] = qHTS assay to identify small molecule antagonists of the estrogen receptor beta (ER-beta) signaling pathway - cell viability counter screen (AID 1259382); details: ER-beta-UAS-bla HEK293T viability, CellTiter-Glo luminescence, 16 h
Outline: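 Cytotoxicity was measured in the same wells by CellTiter-Glo luminescence after 30 min at room temperature. Cells were ER-beta-bla HEK293T in charcoal-stripped serum, given compound together with 1 nM E2 and incubated 16 h at 37C.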

[24] = target: Thyrotropin receptor (Homo sapiens) (UniProt P16473); experiment: qHTS assay to identify small molecule antagonists of the thyroid stimulating hormone receptor (TSHR) signaling pathway (AID 1259385; calls by dose curve; further: potency means the concentration at half of the fitted maximal effect; nearly all actives have a fitted effect of over 20% in size); details: TSHR-HEK293 cAMP HTRF, TSH-stimulated antagonist mode
[25] = qHTS assay to identify small molecule agonists of the TGF-beta/Smad signaling pathway - cell viability counter screen (AID 1346829); details: SBE-bla HEK293T viability, CellTiter-Glo luminescence, 5 h; further: potency means the concentration at half of the fitted maximal effect; nearly all actives have a fitted effect of over 45% in size
Outline: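 Same-well cytotoxicity: CellTiter-Glo added after the 2 hr room-temperature beta-lactamase substrate step, luminescence measured 30 min later; cells had 5 hr of compound at 37 C.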

[26] = Caspase-3/7 induction in HepG2 cells by small molecules, qHTS assay (AID 1346978); details: HepG2 caspase-3/7 activation, Caspase-Glo luminescence, 17 h; further: potency means the concentration at half of the fitted maximal effect; nearly all actives have a fitted effect of over 15% in size
Outline: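 Wild-type HepG2 cells, 2,000/well, settled 5 hr at 37 C and 5% CO2, then compound-treated for 17 hr; caspase-3/7 activity read by luminescent Caspase-Glo 3/7 after 30 min at room temperature.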

[27] = A CellTox Green Cytotoxicity Assay to monitor cytotoxicity in HEK293 cells - 40 hour (AID 1224871); details: CellTox Green fluorescence
Outline: (§3)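 Fluorescence from a DNA-binding dye excluded by viable cells was measured repeatedly in the same HEK293 wells (600 cells/well) during continuous compound exposure at 37 C. Each assay gives one read point: 0, 8, 16, 24, 32 or 40 h.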

[28] = A CellTox Green Cytotoxicity Assay to monitor cytotoxicity in HepG2 cells - 16 hour (AID 1224876); details: CellTox Green fluorescence
Outline: as §2

[29] = qHTS assay for small molecule agonists of the p53 signaling pathway - cell viability (AID 651633; calls by dose curve;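 further: p53RE-bla HCT reporter cells with a stable beta-lactamase p53 reporter; on the % scale 0 is the no-effect control and ±100 the full control effect; nearly all actives have a fitted effect of over 30% in size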)
Outline: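 p53RE-bla cells were treated with compound for 16 hours at 37 C. Cytotoxicity was then measured as CellTiter-Glo luminescence after 30 min at room temperature.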

[30] = qHTS assay to identify small molecule antagonists of the glucocorticoid receptor (GR) signaling pathway - cell viability counter screen (AID 720693)
[31] = A CellTox Green Cytotoxicity Assay to monitor cytotoxicity in HEK293 cells - 0 hour (AID 1224869); details: CellTox Green fluorescence; at 76.8 µM (top of the series)
Outline: as §3

[32] = A CellTox Green Cytotoxicity Assay to monitor cytotoxicity in HEK293 cells - 8 hour (AID 1224884); further: on the % scale 0 is the no-effect control and ±100 the full control effect; nearly all actives have a fitted effect of over 35% in size
Outline: as §3

CCOP(=S)(CC)Sc1ccccc1 (stereo not drawn)
inactive: activity change, negative = inhibition [1] 11.3%

O=C1C2CC=CCC2C(=O)N1SC(Cl)(Cl)C(Cl)Cl (stereo not drawn)
active: Potency [2] 54.9 µM and 61.1 µM | Potency [3] 2.75 µM and 3.06 µM | Potency [4] 2.75 µM and 3.06 µM | Potency [5] 3.06 µM | Potency [6] 61.6 µM | Potency [7] 15.5 µM and 3.86 µM | Potency [8] 54.9 µM and 19.3 µM | Potency [9] 19.5 µM and 8.63 µM | Potency [10] 17.2 µM | Potency [11] 24.5 µM and 8.63 µM | Potency [12] 5.53 µM and 3.09 µM | Potency [13] 12.3 µM | Potency [14] 4.93 µM and 2.75 µM | Potency [15] 19.6 µM and 6.16 µM | Potency [16] 6.97 µM and 3.47 µM | Potency [17] 27.3 µM | Potency [18] 6.16 µM and 3.86 µM | Potency [19] 4.89 µM and 5.45 µM | Potency [20] 12.3 µM | Potency [21] 61.6 µM and 27.3 µM | Potency [22] 21.8 µM and 27.3 µM | Potency [23] 17.2 µM | Potency [24] 38.6 µM | Potency [25] 24.5 µM | Potency [26] 13.8 µM and 5.45 µM

O=[N+]([O-])c1cccc([N+](=O)[O-])c1
active: Potency [27] 40.5 µM | Potency [28] 40.5 µM

[NH4+].[O-][Cl+3]([O-])([O-])[O-]
inactive: Potency [29] | Potency [30] | cytotoxicity [31] 1.74% | Potency [13] | Potency [32]
